From ChEMBL document CHEMBL2384999, “Discovery of a potent, dual serotonin and norepinephrine reuptake inhibitor” (ACS Med Chem Lett, 2013)

Sequences of proteins named here, by UniProt entry; tags and fusion partners are left off.
UniProt P31645, whole entry: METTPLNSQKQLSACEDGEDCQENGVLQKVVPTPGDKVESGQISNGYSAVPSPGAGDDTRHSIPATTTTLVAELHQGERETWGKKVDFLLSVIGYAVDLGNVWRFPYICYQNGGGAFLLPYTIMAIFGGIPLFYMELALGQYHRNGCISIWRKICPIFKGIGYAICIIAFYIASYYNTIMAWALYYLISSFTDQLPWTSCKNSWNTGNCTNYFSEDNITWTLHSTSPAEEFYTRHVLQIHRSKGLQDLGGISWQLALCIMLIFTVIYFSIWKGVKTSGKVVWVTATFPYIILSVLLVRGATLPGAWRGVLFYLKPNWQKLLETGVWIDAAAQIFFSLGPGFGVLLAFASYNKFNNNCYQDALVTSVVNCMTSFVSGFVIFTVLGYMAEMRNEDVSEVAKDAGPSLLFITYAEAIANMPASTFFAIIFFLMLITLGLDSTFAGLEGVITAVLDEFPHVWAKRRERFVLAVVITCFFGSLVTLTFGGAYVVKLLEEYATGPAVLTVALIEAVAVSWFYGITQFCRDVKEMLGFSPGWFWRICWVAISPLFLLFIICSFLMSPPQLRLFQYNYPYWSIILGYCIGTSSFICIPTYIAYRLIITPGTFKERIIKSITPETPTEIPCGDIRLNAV
UniProt Q01959, whole entry: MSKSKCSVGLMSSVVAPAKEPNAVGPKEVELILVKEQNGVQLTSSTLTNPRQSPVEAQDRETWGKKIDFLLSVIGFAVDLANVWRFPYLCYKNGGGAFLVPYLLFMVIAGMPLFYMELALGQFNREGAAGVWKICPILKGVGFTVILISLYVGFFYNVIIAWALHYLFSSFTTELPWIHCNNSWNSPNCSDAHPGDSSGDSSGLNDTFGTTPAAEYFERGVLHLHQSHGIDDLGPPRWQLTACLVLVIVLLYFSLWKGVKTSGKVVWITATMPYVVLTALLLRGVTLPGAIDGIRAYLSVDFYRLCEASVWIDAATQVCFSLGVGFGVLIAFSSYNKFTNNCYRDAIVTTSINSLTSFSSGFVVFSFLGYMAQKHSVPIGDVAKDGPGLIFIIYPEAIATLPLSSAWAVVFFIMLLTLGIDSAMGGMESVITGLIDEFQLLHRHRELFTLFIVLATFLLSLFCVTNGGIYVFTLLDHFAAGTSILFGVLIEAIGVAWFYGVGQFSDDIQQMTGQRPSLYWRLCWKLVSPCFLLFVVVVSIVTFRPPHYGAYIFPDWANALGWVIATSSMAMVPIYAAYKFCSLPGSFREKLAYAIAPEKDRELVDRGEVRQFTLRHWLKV
UniProt P23975, whole entry: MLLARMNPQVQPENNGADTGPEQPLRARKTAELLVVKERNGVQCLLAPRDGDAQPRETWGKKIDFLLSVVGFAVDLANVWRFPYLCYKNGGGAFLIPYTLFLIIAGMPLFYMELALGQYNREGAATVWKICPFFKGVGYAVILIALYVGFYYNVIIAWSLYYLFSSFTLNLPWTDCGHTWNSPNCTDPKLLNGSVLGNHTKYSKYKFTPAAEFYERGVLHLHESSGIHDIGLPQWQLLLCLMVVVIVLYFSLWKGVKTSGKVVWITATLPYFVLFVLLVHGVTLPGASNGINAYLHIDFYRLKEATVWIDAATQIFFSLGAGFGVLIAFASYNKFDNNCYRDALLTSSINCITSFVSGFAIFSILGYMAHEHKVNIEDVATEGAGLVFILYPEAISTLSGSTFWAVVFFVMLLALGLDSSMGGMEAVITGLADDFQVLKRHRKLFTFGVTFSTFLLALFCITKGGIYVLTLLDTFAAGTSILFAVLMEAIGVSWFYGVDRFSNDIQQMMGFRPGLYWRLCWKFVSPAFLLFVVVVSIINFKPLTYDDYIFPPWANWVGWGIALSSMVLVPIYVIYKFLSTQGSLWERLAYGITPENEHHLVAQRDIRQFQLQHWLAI

Columns and labels:
Experiment in all cases: biochemical
[1] = target: Sodium-dependent serotonin transporter (Homo sapiens, UniProt P31645); assay type: cell-based, HEK293
[2] = target: Sodium-dependent dopamine transporter (Homo sapiens, UniProt Q01959)
[3] = target: Sodium-dependent noradrenaline transporter (Homo sapiens, UniProt P23975)

In the case of CN(C)CC(c1ccc(O)cc1)C1(O)CCCCC1 (stereo not given) [DESVENLAFAXINE], the IC50 [1] is reported as 17 nM, the Ki [1] is reported as 15 nM and the Ki [2] is reported as > 854 nM. The IC50 [3] was 1500 nM and the Ki [3] was > 650 nM.
